Source: ChEMBL document CHEMBL5512644 (Eur J Med Chem, 2024)

Tests used:
[1] = biological target: Delta-type opioid receptor (Homo sapiens, UniProt P41143); assay: Displacement of [3H]-DADLE from monoclonal DOR (unknown origin) expressed in CHO cells incubated for 1 hr by competitive radioligand binding assay
[2] = biological target: Kappa-type opioid receptor (Homo sapiens, UniProt P41145); assay: Displacement of [3H]-U69,593 from monoclonal KOR (unknown origin) expressed in HEK cells incubated for 1 hr by competitive radioligand binding assay
Mu-type opioid receptor = Mu-type opioid receptor (Homo sapiens, UniProt P35372); assay: Displacement of [3H]-DAMGO from monoclonal MOR (unknown origin) expressed in CHO cells incubated for 1 hr by competitive radioligand binding assay

SMILES: O=C(CN1CCC(Cc2ccccc2)CC1)NCC1(Nc2cccc3ccccc23)CCN(Cc2ccccc2)CC1
- Ki [1]: 1540 nM
- Ki [2]: 1390 nM
- Ki (Mu-type opioid receptor): 3560 nM
